Parent scFvs against a spike HR2 peptide, AlphaSeq assay 2

Data: MIT Lincoln Laboratory AlphaSeq set, Engelhart et al. 2022, doi:10.1038/s41597-022-01779-4, as distributed in FLAb.

The target is the same throughout: PDVDLGDISGINAS, from the HR2 region of SARS-CoV-2 spike.

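The three antibodies came from panning a naive human phage display library on the peptide; each was carried in both assays of the study as a common reference. Ab-14 and Ab-95 are built VH, linker, VL, and Ab-91 VL, linker, VH. The assay is AlphaSeq: two haploid yeast populations carry antibody and antigen on their surface. The frequency of each diploid, read from paired DNA barcodes, reflects how well the two displayed proteins bind. Read counts were normalised to the haploid input and turned into Kd by a linear fit to BCL2-family pairs of known affinity, for each replicate. There are three technical replicates.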

Values are log10 of the apparent Kd in nM; lower means stronger binding. Entries in the file, in the order shown: AAYL52_1, MIT_95_HL_scFV; AAYL51_1, MIT_91_LH_scFV; MIT_14_HL_scFV. Names that start with MIT are the reference entries, the others are copies inside a library.

antibody,scFv,"replicates, log10 nM"
Ab-95,EVQLVESGAEVKKPGASVKVSCKASGYTFTSYGISWVRQAPGQGLEWMGWISAYNGNTNYAQKLQGRVTMTTDTSTSTAYMELRSLRSDDTAVYYCARVGRGVIDHWGQGTLVTVSSGGGGSGGGGSGGGGSSSELTQDPAVSVALGQTVRITCEGDSLRYYYANWYQQKPGQAPILVIYGKNNRPSGIADRFSGSNSGDTSSLIITGAQAEDEADYYCSSRDSSGFQVFFGAGTKLTVL,2.15 2.20 2.39; 2.26 2.25 2.41
Ab-91,QAVLTQPSSLSASPGASVSLTCTLRSGINVGTYRIYWYQQKPGSPPQYLLRYKSDSDKQQGSGVPSRFSGSKDASANAGILLISGLQSEDEADYYCMIWHSSAWVFGGGTKLTVLGGGGSGGGGSGGGGSEVQLVESGGGLVQPGRSLRLSCAASGFTFDDYAMHWVRQAPGKGLEWVSGISWNSGSIGYADSVKGRFTISRDNAENSLYLQMNSLRAEDTALYYCAKVGRGGGYFDYWGQGTLVTVSS,1.02 1.15 0.46; 1.78 1.94 1.84
Ab-14,EVQLVETGGGLVQPGGSLRLSCAASGFTLNSYGISWVRQAPGKGPEWVSVIYSDGRRTFYGDSVKGRFTISRDTSTNTVYLQMNSLRVEDTAVYYCAKGRAAGTFDSWGQGTLVTVSSGGGGSGGGGSGGGGSDVVMTQSPESLAVSLGERATISCKSSQSVLYESRNKNSVAWYQQKAGQPPKLLIYWASTRESGVPDRFSGSGSGTDFTLTISSLQAEDAAVYYCQQYHRLPLSFGGGTKVEIK,1.22 1.08 0.76

As a blank, each scFv also met three strains without target: over all scFvs of this assay, 25% of these pairings were detected, typically at 4.12 and seldom below 2.98. A sequence that the file lists under several names has all its replicates listed entry by entry, parted by semicolons.